Literature values as cited in publication PMC5689474 (Amino acids, 2010).

Sequences of proteins named here, by UniProt entry; tags and fusion partners are left off.
UniProt P33535, whole entry: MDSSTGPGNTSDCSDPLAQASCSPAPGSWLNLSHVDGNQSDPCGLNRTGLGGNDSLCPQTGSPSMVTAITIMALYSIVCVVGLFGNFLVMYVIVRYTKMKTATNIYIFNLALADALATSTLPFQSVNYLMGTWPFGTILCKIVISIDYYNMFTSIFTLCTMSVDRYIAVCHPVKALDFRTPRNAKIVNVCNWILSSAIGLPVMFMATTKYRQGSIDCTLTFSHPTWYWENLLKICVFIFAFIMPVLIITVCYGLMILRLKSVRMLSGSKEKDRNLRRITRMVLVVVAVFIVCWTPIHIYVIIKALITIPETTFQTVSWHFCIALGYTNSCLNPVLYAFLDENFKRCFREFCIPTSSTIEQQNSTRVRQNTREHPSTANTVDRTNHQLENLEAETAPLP

Columns and labels:
[1] = target: hMOR (μ-receptor) (Rattus norvegicus, UniProt P33535); settings: net total bound/basal binding × 100 ± SEM; ref Lipkowski et al. (1999)
[2] = target: hDOR (δ-receptor) (Homo sapiens, UniProt P41143); settings: net total bound/basal binding × 100 ± SEM; ref Lipkowski et al. (1999)

Tyr-D-Ala-Gly-Phe-NH-NH\-Phe\-Gly\-D-Ala\-Tyr [Bph]
GTP binding Emax, hMOR [1]: 25 ± 4%
GTP binding Emax, hDOR [2]: 27 ± 3%
